Values quoted from earlier work as cited in US20170340648A1, “Pharmaceutical Compositions Affecting Bioenergetic Processes in a Eukaryotic Biological System and Methods of Treatment” (JOYCE BIOTECH CORP., priority 2016, published 2017).

Conditions: cited from earlier work

## CN(C)C(=N)N=C(N)N [metformin, 3-(diaminomethylidene)-1,1-dimethylguanidine]
  plasma concentration, change in NASH: increasing
